{"source": "PubChem BioAssay AID463206", "about": "(Broad Institute, 2010)", "system": "INS-1E cytokine-induced caspase-3/7, Caspase-Glo luminescence, 48 h", "assay": "inhibitors of cytokine-induced caspase-3/7 activity, dose response, orthogonal assay for beta-cell apoptosis protection project, INS-1E rat cells, luminescence (AID 463206)", "note": "Active and inactive are the calls of the source.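 The calls were made as follows: active = caspase luminescence falls with dose and the half-maximal concentration AC50 from the fitted curve is at or below a set limit; inconclusive = flat fit at 30 to 70% signal loss, or invalid fit; inactive = AC50 above the limit, or signal rises instead.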", "data": [{"smiles": "CC[n+]1c(/C=C/N(C)c2ccccc2)oc2ccccc21", "values": [{"measurement": "AC50", "value": "inactive: > 26 µM"}]}]}
